Counter-ions that a name gives are not always drawn. ± gives the uncertainty stated by the source. The list shows a part of the results, in another mix than the full data.

We go through seven compounds from the supplement of paper PMC10933113.

For the experiment, the system named is THP-1. The experiment can be described thus: CD54 surface expression induction over DMSO control (% over DMSO); higher = stronger dendritic cell activation. Conditions: exposure time: 24 h. How it is done: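 hCLAT-like CD54 and CD86 surface expression on THP1 cells after 24 h exposure at a single concentration (highest non-cytotoxic concentration, or 100-200 µM if not cytotoxic). Flow cytometry (iQue) was run on 5,000 live cells.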
Regarding `CCOC(=S)S` [Potassium ethyl xanthate] (200 µM), the “CD54 surface expression induction” value came to 22.9 ± 49. As for `O=[N+]([O-])[O-].[K+]` [Potassium nitrate] (199 µM), the figure is -4.85 ± 4.3; as for `CCC[CH2][Sn]([Cl])([CH2]CCC)[CH2]CCC` [Tributyltin chloride] (10 µM), 2.99 ± 1.7; as for `C=CC(=O)OCC(CC)CCCC` (configuration not stated) [2-Ethylhexyl acrylate] (200 µM), -15.4 ± 1. As for `Nc1cccc2ccccc12` [1-Naphthylamine] (100 µM), the figure is 33.4 ± 1.5.

Consider `CN(C)C(=S)[S-].CN(C)C(=S)[S-].[Zn+2]` [Ziram] (10 µM), for which the “CD54 surface expression induction” value is -7.44 ± 1.8. Next, `Oc1cccc2cccnc12` [8-Hydroxyquinoline citrate] (10 µM): -0.29 ± 1.5.
